The values that follow come from ChEMBL document CHEMBL4627376, “Substituted benzyloxytricyclic compounds as retinoic acid-related orphan receptor gamma t (RORγt) agonists” (Bioorg Med Chem Lett, 2020).

The target in this assay is T1, Nuclear receptor ROR-gamma (Mus musculus) (UniProt P51450).
T1 sequence (whole entry): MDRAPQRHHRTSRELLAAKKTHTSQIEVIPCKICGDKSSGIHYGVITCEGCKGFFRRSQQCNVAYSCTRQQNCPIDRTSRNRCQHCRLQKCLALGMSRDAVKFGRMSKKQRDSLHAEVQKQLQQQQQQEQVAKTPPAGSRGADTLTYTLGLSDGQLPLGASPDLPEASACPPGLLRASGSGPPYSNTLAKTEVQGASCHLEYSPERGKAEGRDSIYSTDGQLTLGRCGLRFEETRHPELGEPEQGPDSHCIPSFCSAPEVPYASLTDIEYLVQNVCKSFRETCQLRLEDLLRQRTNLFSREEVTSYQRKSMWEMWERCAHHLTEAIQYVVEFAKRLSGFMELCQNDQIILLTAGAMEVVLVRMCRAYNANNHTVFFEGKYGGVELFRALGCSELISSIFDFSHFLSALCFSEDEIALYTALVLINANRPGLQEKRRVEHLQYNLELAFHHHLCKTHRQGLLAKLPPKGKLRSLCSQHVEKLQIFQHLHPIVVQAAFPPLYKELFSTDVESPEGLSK
Nature of the assay: Agonist activity at RORgammat in po dosed C57BL6 mouse allografted with mouse MC38 cells assessed as increase in IL-17A expression in lymph node administered as po bid for 28 days by TaqMan probe based assay. It is filed as functional, organism-based. In general terms: In qPCR the cycle at which signal appears reflects the starting amount.

Turning to `C[C@]1(C(=O)N2CC[C@@]3(S(=O)(=O)c4ccc(F)cc4)c4ccc(OCc5c(F)cccc5C(F)(F)F)cc4CC[C@@H]23)CC[C@H](C(=O)O)CC1`, the Activity entry was “Dose-dependent effect”.
